Measurements taken from ChEMBL document CHEMBL6078650, “A Phenotypic High-Throughput Screen Identifies Small Molecule Modulators of Endogenous RGS10 in BV-2 Cells” (J Med Chem, 2024).

The compounds below were run on BV-2 (assay: Reversal of IFNgamma-induced RGS10 silencing in mouse single close BV-2 cells assessed as RGS10 protein level by measuring luminescence signal measured after 24 hrs by Nano-Glo HiBit Lytic detection assay).
Type: functional, cell-based
With `O=C(CN1C(=O)NC(c2ccc(Cl)cc2)C2=C1COC2=O)Nc1cc(F)cc(F)c1` (stereo not given) the Activity was “Dose-dependent-effect”.
In the case of `Cc1cc(C)c2c(=O)cc(CN(Cc3ccccc3)Cc3ccco3)[nH]c2c1`, the Activity is reported as “Dose-dependent-effect”.
`Cc1oc(-c2ccc(Cl)cc2)nc1CN1CCCC(C(=O)N2CCN(C(=O)c3ccco3)CC2)C1` (stereo not given) was tested, and the Activity was “Dose-dependent-effect”.
With `CCc1cc(-c2csc(S(=O)(=O)Nc3ccc(C)cc3Br)c2)on1` the Activity was “Dose-dependent-effect”.
`O=C(CN1C(=O)NC(c2ccc(Cl)cc2)C2=C1COC2=O)Nc1ccc(F)c(F)c1` (stereo not given) was tested, and the Activity was “Dose-dependent-effect”.
